IC50 data for one molecule are collected here from patent publication EP4692061A1, “LOW-MOLECULAR-WEIGHT COMPOUND HAVING CEREBLON-BINDING ACTIVITY, AND USE THEREOF” (Aevis Bio, Inc., priority 2023, dated 2024).

The target of this assay is cereblon (CRBN) (Homo sapiens, UniProt Q96SW2). The assay can be described thus: In vitro CRBN binding assay (AlphaScreen, competitive inhibition of the PROTAC assay). Particulars: read-out: Alpha IC50, Table 1, PROTAC Optimization Kit for BET Bromodomain-Cereblon Binding. In general terms: Alpha assays give light when donor and acceptor beads are brought close together.

The IC50 is the point on the concentration scale where inhibition reaches its midpoint. With `Cc1cccc(S(=O)(=O)Nc2cccc(C3CCC(=O)NC3=O)c2)c1` (stereo not shown) [AEV40069], the IC50 was 1.29 µM.
